Results taken from patent publication US9056874B2, “Complement pathway modulators and uses thereof” (NOVARTIS AG, priority 2012, dated 2015).
pIC50: −log10 of the molar value.

The chains behind the UniProt entries cited, without tags or fusion partners. Residues count along the entry.
UniProt P00751, 260-764 limits assumed: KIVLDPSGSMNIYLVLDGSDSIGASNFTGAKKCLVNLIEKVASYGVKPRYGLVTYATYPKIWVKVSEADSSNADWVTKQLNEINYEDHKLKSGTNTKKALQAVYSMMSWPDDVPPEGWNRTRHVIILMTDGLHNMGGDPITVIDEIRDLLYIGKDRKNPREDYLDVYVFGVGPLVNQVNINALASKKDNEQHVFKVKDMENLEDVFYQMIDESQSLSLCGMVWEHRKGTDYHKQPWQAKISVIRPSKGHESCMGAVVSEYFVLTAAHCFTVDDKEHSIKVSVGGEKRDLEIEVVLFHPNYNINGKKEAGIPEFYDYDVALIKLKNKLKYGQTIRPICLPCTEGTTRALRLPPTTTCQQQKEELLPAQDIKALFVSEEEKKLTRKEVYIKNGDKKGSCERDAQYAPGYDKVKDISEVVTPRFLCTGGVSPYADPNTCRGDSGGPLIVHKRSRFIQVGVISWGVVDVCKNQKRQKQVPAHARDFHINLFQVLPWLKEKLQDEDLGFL
UniProt Q91132, 23-649 partner limits assumed: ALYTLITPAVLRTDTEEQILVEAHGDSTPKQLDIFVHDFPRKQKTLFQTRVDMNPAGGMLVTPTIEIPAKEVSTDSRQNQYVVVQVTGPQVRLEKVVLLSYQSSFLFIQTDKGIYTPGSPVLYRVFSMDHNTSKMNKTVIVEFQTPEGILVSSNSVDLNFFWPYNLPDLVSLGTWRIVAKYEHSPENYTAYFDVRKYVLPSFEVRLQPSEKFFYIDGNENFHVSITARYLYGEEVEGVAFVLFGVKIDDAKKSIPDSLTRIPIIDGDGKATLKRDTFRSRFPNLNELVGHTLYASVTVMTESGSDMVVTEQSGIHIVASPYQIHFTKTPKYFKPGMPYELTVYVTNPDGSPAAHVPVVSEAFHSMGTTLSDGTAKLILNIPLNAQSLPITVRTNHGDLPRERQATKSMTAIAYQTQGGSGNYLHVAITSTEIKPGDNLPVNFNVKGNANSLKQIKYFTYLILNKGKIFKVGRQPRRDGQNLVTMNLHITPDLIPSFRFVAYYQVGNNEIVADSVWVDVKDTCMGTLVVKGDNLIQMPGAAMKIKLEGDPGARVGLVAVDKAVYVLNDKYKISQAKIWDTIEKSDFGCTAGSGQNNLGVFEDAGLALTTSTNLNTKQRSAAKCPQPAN
UniProt Q91132, 733-984 partner limits assumed: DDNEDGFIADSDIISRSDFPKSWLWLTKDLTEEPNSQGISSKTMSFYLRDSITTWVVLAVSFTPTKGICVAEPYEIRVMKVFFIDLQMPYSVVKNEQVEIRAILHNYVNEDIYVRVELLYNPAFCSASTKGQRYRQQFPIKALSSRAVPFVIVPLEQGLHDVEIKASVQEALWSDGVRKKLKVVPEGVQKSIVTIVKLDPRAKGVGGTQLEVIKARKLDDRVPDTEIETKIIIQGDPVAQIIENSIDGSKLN
UniProt Q91132, 1264-1642 partner limits assumed: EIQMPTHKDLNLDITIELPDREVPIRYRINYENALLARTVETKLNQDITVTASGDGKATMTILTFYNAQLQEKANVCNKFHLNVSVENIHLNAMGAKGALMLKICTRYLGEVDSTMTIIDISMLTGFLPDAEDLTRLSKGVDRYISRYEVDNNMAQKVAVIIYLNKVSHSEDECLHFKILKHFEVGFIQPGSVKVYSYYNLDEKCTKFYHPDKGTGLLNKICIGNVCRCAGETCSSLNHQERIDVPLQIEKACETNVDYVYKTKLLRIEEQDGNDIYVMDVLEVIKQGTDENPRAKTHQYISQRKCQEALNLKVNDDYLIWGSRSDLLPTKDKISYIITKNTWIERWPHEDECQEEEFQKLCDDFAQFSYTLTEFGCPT

Target: factor B (Homo sapiens, UniProt P00751)
Test: factor B inhibition assay of Biological Example 1
Assay type: biochemical
Settings: assay of Biological Example 1 (Table 1)

CCc1cc(C)c2[nH]ccc2c1Cc1nc2cc(C#N)c(F)cc2[nH]1
pIC50: 5.92
